Sequences of proteins named here, by UniProt entry; tags and fusion partners are left off.
UniProt P27487, whole entry, looked up: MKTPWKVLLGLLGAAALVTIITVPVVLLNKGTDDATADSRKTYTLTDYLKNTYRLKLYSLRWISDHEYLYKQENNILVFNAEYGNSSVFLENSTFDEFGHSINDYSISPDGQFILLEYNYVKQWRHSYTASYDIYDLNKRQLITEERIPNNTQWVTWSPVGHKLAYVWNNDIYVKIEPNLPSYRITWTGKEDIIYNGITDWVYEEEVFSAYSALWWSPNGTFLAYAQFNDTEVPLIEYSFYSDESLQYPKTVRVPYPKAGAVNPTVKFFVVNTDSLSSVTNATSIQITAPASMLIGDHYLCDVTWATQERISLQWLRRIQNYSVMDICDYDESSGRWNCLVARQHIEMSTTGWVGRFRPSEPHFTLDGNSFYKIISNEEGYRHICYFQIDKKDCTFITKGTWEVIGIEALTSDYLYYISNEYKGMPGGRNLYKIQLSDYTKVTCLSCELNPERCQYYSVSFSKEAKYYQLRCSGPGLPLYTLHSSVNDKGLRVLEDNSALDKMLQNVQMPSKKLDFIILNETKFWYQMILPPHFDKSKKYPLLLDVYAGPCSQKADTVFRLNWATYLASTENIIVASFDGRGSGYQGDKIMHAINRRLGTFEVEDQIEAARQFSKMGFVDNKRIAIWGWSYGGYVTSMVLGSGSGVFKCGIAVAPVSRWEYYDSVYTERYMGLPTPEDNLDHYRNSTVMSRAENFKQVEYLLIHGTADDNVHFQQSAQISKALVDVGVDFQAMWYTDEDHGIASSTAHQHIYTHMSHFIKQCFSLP

According to ChEMBL document CHEMBL4622831, “Anti-diabetic drugs recent approaches and advancements” (Bioorg Med Chem, 2020):

Biological target: Dipeptidyl peptidase 4 (Homo sapiens, UniProt P27487)

For CC#CCN1C(N2CCC[C@H](N)C2)=NC2C1C(=O)N(C(C)c1nc(C)c3ccccc3n1)C(=O)N2C (stereo partly specified), the IC50 was 2.07 nM.
